PglD DTNB – C. jejuni PglD acetyltransferase inhibitors, primary screen, biochemical, DTNB colorimetric, single point. UDP-N-acetylbacillosamine N-acetyltransferase PglD (Campylobacter jejuni). purified PglD enzyme, DTNB colorimetric CoA detection. inhibition, % at 12.5 µM. 360,000 tested, 0.098% active; in the data active = inhibition above about 16%, passing the limit was not always enough
FGF22 binding – binders of human FGF22 protein, primary screen, FGF22 synaptogenesis inhibitor project, biophysical, thermal shift, single point; 340,000 tested, 1.5% active; activity (Tm shift, normalised), % at 9.99 µM; Fibroblast growth factor 22 (Homo sapiens), Q9HCT0; recombinant FGF22 thermal shift, SYPRO orange fluorescence; percent of sucrose octasulfate shift, DMSO zero; AID 651658, 2012;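 active = mean Tm shift, scaled 0 neutral to 100 positive control, at about 1.3% or above, every replicate too, limit read from the data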
PDI inh – inhibitors of human PDI, primary screen, biochemical, turbidity, single point, plate reader. PDI insulin aggregation turbidity, A650, 90 min. inhibition, % at 10 µM. 350,000 tested, 0.052% active;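 active = mean inhibition across replicates of 30% or more, whatever share of single replicates reach that level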
ARNT-TACC3 inh – disruptors of ARNT/TACC3 protein interaction, primary screen, biochemical, AlphaScreen, single concentration; Transforming acidic coiled-coil-containing protein 3 (Homo sapiens), Q9Y6A5; AlphaScreen His-ARNT PAS-B/GST-TACC3 binding, luminescence; TACC3 fragment carries E629A point mutation; inhibition, % at 9.99 µM; 390,000 tested, 0.66% active; AID 623870, 2012;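 active = mean inhibition of replicates at least 50% and at least half of replicates each reaching 50%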;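 also: 0% = complete ARNT plus TACC3 wells and 100% = ARNT alone without TACC3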
UUG fidelity – modulators of start codon recognition fidelity in yeast; S. cerevisiae UUG-firefly luciferase reporter, luminescence/redox ratio; AID 602363; 350,000 tested, 0.13% active; activity score, % at 18.7 µM;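 active = replicate mean at a twofold rise or more, about +100% in these data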;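 also: firefly luciferase made from a UUG start codon reports start codon fidelity; reporter light over untreated wells divided by growth signal over untreated wells; some hits fall short of that in this replicate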
ERp5 block – inhibitors of ERp5-driven insulin aggregation, primary screen, biochemical, turbidity, absorbance 650 nm, single point; AID 651711, 2012; 350,000 tested, 0.05% active; 90 min; inhibition, % at 9.99 µM;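 active = mean replicate inhibition above about 25%, with every replicate also reaching it, limit read from the data, passing the limit was not always enough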
Numbers without * were called inactive; · = no result. Rows were chosen to be rich in hits. Some 1.9% of all compounds tested hit in one or more screens of this group.

SMILES	PglD DTNB	FGF22 binding	PDI inh	ARNT-TACC3 inh	UUG fidelity	ERp5 block
C/C=C/c1ccc([C@H]2[C@@H](CO)N(CCC(F)(F)F)C23CN(C(C)=O)C3)cc1	·	-0.1	·	·	·	-1.4
O=C1CC2c3ccccc3C1C1C(=O)N(CCc3ccccc3)C(=O)C21 (stereo not given)	·	43.2*	1.6	-10.0	·	-0.6
COc1cccc(-c2nnc(NC(=O)c3cccc(F)c3)o2)c1	0.6	0.0	-14.1	15.6	-10.2	3.7
O=C(Nc1nnc(-c2cccnc2)o1)c1cccc(Cl)c1	·	0.5	4.9	52.0*	·	4.1
COc1cc(OC)cc(C(=O)Nc2nnc(-c3cccnc3)o2)c1	·	-0.1	-1.3	61.6*	·	-1.8
O=C(Nc1nnc(-c2ccccn2)o1)c1cccc(Cl)c1	·	0.2	-5.0	52.2*	·	3.6
COc1cccc(-c2ccc([C@H]3[C@H](CO)N4CCCCN(C(=O)NC(C)C)C[C@@H]34)cc2)c1	-5.5	0.0	·	5.9	-9.6	1.1
C/C=C/c1ccc2c(c1)O[C@H](CN(C)C(=O)NC(C)C)[C@H](C)CN([C@H](C)CO)S2(=O)=O	0.8	0.0	·	13.0	-2.2	0.1
COC(=O)c1ccc(CNCC(=O)Nc2ccc(C(=O)OC)cc2)cc1	·	43.4*	6.4	·	·	0.4
C[C@H](CO)N1C[C@H](C)[C@H](CN(C)CC2CCCCC2)Oc2ccc(NC(=O)c3ccncc3)cc2C1=O	1.3	-0.1	·	·	-2.4	0.7
O=C(Cn1sc2ccccc2c1=O)Nc1ccc(F)cc1	-3.5	43.1*	-2.2	·	-23.9	0.3
C[C@@H]1CN([C@@H](C)CO)C(=O)c2cc(NC(=O)Nc3ccc(C(F)(F)F)cc3)ccc2O[C@@H](C)CCCCO[C@H]1CN(C)C(=O)Cc1ccccc1	0.9	-0.4	·	10.5	-3.7	4.4
N#Cc1ccsc1NC(=O)CN1CCN(Cc2ccccc2)CC1	·	43.2*	-3.5	-0.9	·	6.6
O=[N+]([O-])c1ccc(Cl)cc1Sc1cccc2cccnc12	3.0	·	-0.9	14.4	-9.7	·
Cn1nc([N+](=O)[O-])nc1Sc1cccc2cccnc12	·	0.0	-0.9	63.3*	·	-4.0
Oc1ccc(/C=N/n2cc(-c3ccccc3)[nH]c2=S)cc1	·	43.5*	-4.3	7.9	·	-2.6
COc1cc(/C=N/n2cc(-c3ccccc3)[nH]c2=S)cc(OC)c1O	2.9	-0.2	-0.2	9.3	-16.6	-2.4
C[C@@H]1CN([C@H](C)CO)C(=O)c2cc(NC(=O)c3ccncc3)ccc2O[C@@H]1CN(C)S(=O)(=O)c1ccc(F)cc1	-1.8	0.2	·	-1.6	-4.5	0.7
CN1C(=O)c2cc(NS(C)(=O)=O)ccc2OC[C@@H]2O[C@@H](CC(=O)O)CC[C@@H]21	17.6	-0.2	·	-11.1	5.1	-0.6
Oc1ccc(/C=N/NC(=S)Nc2cccnc2)cc1	·	1.5*	-3.5	4.1	·	0.2

Some values from the entries so far:
C/C=C/c1ccc([C@H]2[C@@H](CO)N(CCC(F)(F)F)C23CN(C(C)=O)C3)cc1 – FGF22 binding: -0.1
O=C1CC2c3ccccc3C1C1C(=O)N(CCc3ccccc3)C(=O)C21 (stereo not given) – PDI inh: 1.6
C/C=C/c1ccc2c(c1)O[C@H](CN(C)C(=O)NC(C)C)[C@H](C)CN([C@H](C)CO)S2(=O)=O – ARNT-TACC3 inh: 13.0
COc1cccc(-c2nnc(NC(=O)c3cccc(F)c3)o2)c1 – ERp5 block: 3.7
Cn1nc([N+](=O)[O-])nc1Sc1cccc2cccnc12 – ARNT-TACC3 inh: 63.3*
N#Cc1ccsc1NC(=O)CN1CCN(Cc2ccccc2)CC1 – FGF22 binding: 43.2*

The list continues.
SMILES	PglD DTNB	FGF22 binding	PDI inh	ARNT-TACC3 inh	UUG fidelity	ERp5 block
COc1cccc(/C=N/NC(=S)Nc2cccnc2)c1	1.0	0.2	-2.5	3.2	-28.9	5.4
COc1cc(/C=N/NC(=S)Nc2cccc(S(=O)(=O)N(C)C)c2)cc(OC)c1O	-0.8	0.0	-6.7	12.5	-19.3	0.1
CN(C)S(=O)(=O)c1cccc(NC(=S)N/N=C/c2ccc(O)c(O)c2O)c1	-0.8	0.1	8.4	68.7*	-31.3	-2.6
Oc1ccc(/C=N/NC(=S)N/N=C/c2ccc(O)cc2)cc1	-3.7	-0.1	4.3	34.5	-26.6	-1.5
COc1ccc(O)c(/C=N/NC(=S)Nc2cccnc2)c1	·	0.2	6.5	67.3*	·	2.6
COc1ccc(O)c(/C=N/NC(=S)Nc2cccc(S(=O)(=O)N(C)C)c2)c1	-0.8	·	-6.1	65.5*	-24.6	·
COc1cccc(/C=N/NC(=S)Nc2cccc(S(=O)(=O)N(C)C)c2)c1	7.9	-0.2	3.9	12.7	-23.8	-1.9
COCCNC(=O)C[C@@H]1CC[C@H]2[C@H](COc3ccc(NC(=O)Nc4ccccc4)cc3C(=O)N2C)O1	-4.9	0.2	·	10.2	-4.9	0.9
CCC(=O)N1CC(=O)N2[C@H](CO)[C@@H](c3ccc(-c4ccncc4)cc3)[C@H]2C1	·	·	·	·	·	3.4
O=C(C[C@H]1CC[C@H](NC(=O)Cc2ccccn2)[C@H](CO)O1)NCCc1ccncc1	5.3	-0.1	·	-2.2	·	-0.3
O=C(CNCc1ccccc1)Nc1ccccc1-c1ccccc1	·	44.0*	6.1	-1.1	-8.5	-0.4
O=C(CNCc1ccccc1)Nc1cccc(Cl)c1Cl	1.3	0.1	0.1	-0.9	-12.3	1.6
COc1ccc(N=C2S/C(=C\c3ccc(OCC(=O)O)cc3)C(=O)N2CCc2c[nH]c3ccccc23)cc1	·	0.9	-1.1	18.1	·	31.5*
CCCCCCc1c(O)nc(SCCN2CCOCC2)[nH]c1=O	-3.5	44.2*	-0.2	21.2	-4.2	-0.4
COc1ccccc1CCc1nnc(CCC(=O)NCCOc2cccnc2)o1	7.3	43.7*	12.0	·	-13.4	4.2
COc1ccccc1CCc1nnc(CCC(=O)NCC(C)Oc2cccnc2)o1 (stereo not given)	·	0.2	-4.0	-6.5	·	0.4
COc1ccccc1NC(=O)CCC(=O)Nc1cc(OC)c(NC(=O)c2cccs2)cc1OC	·	-0.4	0.0	26.1*	·	2.4
O=C(CSc1nc2ccccc2c(=O)n1-c1ccc(F)cc1F)NC1CC1	-0.2	43.2*	7.5	·	-16.3	1.1
O=C(CSc1nc2ccccc2c(=O)n1-c1ccccc1F)NC1CC1	-2.4	0.0	-4.9	-2.6	-17.1	5.5
COc1ccc(N2CCN(Cc3cc(OC)c(O)c([N+](=O)[O-])c3)CC2)cc1	9.4	·	3.9	-3.0	-15.7	·
COc1cc(CN2CCN(c3cccc(C)c3C)CC2)cc([N+](=O)[O-])c1O	·	43.4*	-2.0	3.0	·	-3.3
C[C@H](CO)N1C[C@H](C)[C@H](CN(C)S(=O)(=O)c2cn(C)cn2)Oc2ccc(NC(=O)CCN3CCOCC3)cc2CC1=O	2.9	0.1	·	-29.5	0.6	1.9
Cc1ccc(S(=O)(=O)N2c3ccccc3-c3c(ssc3=S)C2(C)C)cc1	-4.4	-0.4	-2.9	17.1	-32.1	3.0
CC1(C)CSC(=S)N1S(=O)(=O)c1ccccc1	-2.3	·	-2.4	64.3*	6.5	2.4
COc1ccc2c3c([nH]c2c1)[C@H](CO)N(C(=O)c1ccncc1)CC31CCN(C(=O)NC(C)C)CC1	·	-0.3	·	·	·	2.2
COc1ccc(OC)c(/C=N/Nc2nncn2/N=C/c2cc(OC)ccc2OC)c1	-0.2	·	-3.2	2.5	-22.0	·

Entries of single compounds, quoted from the list.
C[C@H](CO)N1C[C@H](C)[C@H](CN(C)S(=O)(=O)c2cn(C)cn2)Oc2ccc(NC(=O)CCN3CCOCC3)cc2CC1=O reads PglD DTNB: 2.9; FGF22 binding: 0.1; PDI inh: ·; ARNT-TACC3 inh: -29.5; UUG fidelity: 0.6; ERp5 block: 1.9
N#Cc1ccsc1NC(=O)CN1CCN(Cc2ccccc2)CC1 reads PglD DTNB: ·; FGF22 binding: 43.2*; PDI inh: -3.5; ARNT-TACC3 inh: -0.9; UUG fidelity: ·; ERp5 block: 6.6

Bioassay records from PubChem.
